Literature values in patent publication US20230330042A1 (published 2023).

Protein sequences, listed by entry. Tags and fused reporters are not part of them.
UniProt P23975, whole entry: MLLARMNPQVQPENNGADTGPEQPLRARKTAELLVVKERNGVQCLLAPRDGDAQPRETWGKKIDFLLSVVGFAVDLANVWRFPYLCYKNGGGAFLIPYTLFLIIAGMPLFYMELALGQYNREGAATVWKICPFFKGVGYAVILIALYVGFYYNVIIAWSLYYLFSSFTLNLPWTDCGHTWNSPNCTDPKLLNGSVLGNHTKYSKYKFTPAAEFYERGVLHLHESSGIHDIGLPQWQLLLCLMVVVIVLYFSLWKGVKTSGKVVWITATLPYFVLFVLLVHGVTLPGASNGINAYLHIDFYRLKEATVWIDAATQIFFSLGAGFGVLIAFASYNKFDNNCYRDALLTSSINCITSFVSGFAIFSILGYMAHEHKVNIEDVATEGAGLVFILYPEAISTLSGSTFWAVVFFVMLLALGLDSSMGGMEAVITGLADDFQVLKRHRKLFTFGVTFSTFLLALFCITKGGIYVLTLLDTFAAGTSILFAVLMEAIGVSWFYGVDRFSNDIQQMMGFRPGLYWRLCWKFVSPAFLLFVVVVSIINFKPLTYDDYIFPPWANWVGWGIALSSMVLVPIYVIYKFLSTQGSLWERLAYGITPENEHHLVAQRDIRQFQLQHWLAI

Target: Noradrenaline reuptake (Homo sapiens, UniProt P23975)
Conditions: read-out: Ki Noradrenaline; Mean value (n = 2-3); NA: no activity at 10 μmol/L

Ki: 6.61 nM
SMILES: CN(C)CCCN1c2ccccc2CCc2ccccc21 [Imipramine]
